This is an account of results in ChEMBL document CHEMBL1153352, “Syntheses of novel 2,3-diaryl-substituted 5-cyano-4-azaindoles exhibiting c-Met inhibition activity” (Bioorg Med Chem Lett, 2009).

Protein sequences, listed by entry. Tags and fused reporters are not part of them. Lines headed by an entry give the natural chain unless they say otherwise; changes in a name come on top.
UniProt P08581: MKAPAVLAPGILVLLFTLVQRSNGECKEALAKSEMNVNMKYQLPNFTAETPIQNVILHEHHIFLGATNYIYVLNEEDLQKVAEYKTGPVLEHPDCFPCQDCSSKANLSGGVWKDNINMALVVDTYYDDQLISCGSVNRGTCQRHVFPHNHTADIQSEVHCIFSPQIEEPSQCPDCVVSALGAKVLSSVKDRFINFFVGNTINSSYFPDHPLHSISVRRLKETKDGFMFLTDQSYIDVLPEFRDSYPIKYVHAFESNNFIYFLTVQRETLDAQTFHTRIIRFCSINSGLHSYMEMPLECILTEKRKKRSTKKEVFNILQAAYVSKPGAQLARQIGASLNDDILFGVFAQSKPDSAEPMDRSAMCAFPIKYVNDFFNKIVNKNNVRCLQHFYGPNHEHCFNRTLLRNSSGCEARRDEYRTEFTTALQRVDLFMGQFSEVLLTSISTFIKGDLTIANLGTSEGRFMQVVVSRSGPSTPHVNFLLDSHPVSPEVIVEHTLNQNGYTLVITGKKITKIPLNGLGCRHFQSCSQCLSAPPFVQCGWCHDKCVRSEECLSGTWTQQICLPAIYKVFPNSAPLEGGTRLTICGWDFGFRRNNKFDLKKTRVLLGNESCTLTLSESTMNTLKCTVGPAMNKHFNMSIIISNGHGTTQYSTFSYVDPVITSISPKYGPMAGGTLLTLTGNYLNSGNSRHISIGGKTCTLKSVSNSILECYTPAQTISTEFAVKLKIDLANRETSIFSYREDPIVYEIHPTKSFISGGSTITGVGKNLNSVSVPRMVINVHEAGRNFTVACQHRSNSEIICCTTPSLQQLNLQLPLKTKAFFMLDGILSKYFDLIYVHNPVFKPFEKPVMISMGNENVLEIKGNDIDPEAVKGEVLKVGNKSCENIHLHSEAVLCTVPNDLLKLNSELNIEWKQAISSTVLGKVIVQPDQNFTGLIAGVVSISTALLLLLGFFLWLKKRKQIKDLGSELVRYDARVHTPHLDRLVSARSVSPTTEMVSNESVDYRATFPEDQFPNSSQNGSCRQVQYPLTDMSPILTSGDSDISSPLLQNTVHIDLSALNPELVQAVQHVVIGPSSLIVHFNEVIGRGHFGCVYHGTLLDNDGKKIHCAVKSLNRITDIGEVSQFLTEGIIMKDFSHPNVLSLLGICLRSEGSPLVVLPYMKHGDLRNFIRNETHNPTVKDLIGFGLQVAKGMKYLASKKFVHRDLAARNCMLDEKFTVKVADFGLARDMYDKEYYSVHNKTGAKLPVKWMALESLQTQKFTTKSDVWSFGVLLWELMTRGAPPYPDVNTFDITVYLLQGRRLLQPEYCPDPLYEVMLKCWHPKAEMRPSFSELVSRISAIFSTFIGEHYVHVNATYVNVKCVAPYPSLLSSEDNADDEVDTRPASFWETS

Active and inactive are the calls of the source. No cut-off for these calls is given here.

The target of this test is Hepatocyte growth factor receptor (Homo sapiens, UniProt P08581). Description: Inhibition of GST-tagged human c-Met expressed in SF9 cells at 10 uM.
For `N#Cc1ccc2[nH]c(-c3ccccc3)c(-c3ccc(F)cc3)c2n1`, the outcome was inactive.
Under `CS(=O)(=O)c1ccc(-c2c(-c3ccncc3)[nH]c3ccc(C#N)nc23)cc1` stands “inactive”; under `N#Cc1ccc2[nH]c(-c3ccncc3)c(-c3cnc(N)nc3)c2n1`, “inactive”.
Under `N#Cc1ccc2[nH]c(-c3ccncc3)c(-c3ccncc3)c2n1` stands “inactive”.
